For the assay, the target named is acetylcholine esterase (Homo sapiens, UniProt P06276). In words: Inhibition of acetylcholine esterase, modified method of Ellmann, human serum. The assay is classed as biochemical. Particulars: ACHE inhibition.

Chains of the proteins cited; added tags and fusions are not shown. Residues count along the entry.
UniProt P06276, 29-602: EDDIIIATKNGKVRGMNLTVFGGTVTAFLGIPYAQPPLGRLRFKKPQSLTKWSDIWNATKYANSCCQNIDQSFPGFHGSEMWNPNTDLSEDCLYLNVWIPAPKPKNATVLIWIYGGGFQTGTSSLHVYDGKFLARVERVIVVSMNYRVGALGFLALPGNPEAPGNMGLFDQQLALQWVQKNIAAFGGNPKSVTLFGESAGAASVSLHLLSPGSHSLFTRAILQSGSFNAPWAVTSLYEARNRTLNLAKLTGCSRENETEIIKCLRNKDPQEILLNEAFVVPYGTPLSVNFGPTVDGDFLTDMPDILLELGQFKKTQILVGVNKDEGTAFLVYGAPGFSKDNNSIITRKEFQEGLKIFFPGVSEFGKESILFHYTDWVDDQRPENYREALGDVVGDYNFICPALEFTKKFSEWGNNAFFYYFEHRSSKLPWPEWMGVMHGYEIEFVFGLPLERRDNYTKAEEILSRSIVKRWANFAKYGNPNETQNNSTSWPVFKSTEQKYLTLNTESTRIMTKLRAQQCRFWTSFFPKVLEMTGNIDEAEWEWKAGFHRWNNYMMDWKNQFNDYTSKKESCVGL

In turn, “3R-2,3,4,4a-tetrahydro-7-bromo-9-methoxy-10-hydroxy (1H,6H) (5,10b) ethanophenanthridine-10-ol [Substance 116]” yielded an IC50 (human serum pool, compounds of formula (II)) of 50 µM.
In the case of methylnarwedine Oxime [Substance 78], the “IC50 in μMol” value (human serum from a pool of 10 test subjects, 37° C., pH 7.8, compounds of general formula (I)) is recorded as “insol”.

For the origin of these results see patent US7101890B2, “Benzazepine derivatives, drugs containing these and use of the same for producing drugs” (priority 1996, dated 2006).
